How the values were obtained:
[1] = Tissue/plasma ratio of the antagonistic compound in pancreas
[2] = Tissue/plasma ratio of the antagonistic compound in heart
[3] = Tissue/plasma ratio of the antagonistic compound in presence of atropine in spleen
[4] = Tissue/plasma ratio of the antagonistic compound in presence of atropine in lung
[5] = Tissue/plasma ratio of the antagonistic compound in stomach
[6] = Tissue/plasma ratio of the antagonistic compound in presence of atropine in trachea
[7] = Tissue/plasma ratio of the antagonistic compound in trachea
[8] = Tissue/plasma ratio of the antagonistic compound in presence of atropine in heart
[9] = Tissue/plasma ratio of the antagonistic compound in submandibular gland
[10] = Tissue/plasma ratio of the antagonistic compound in presence of atropine in stomach
[11] = Tissue/plasma ratio of the antagonistic compound in presence of atropine in intestine
[12] = Tissue/plasma ratio of the antagonistic compound in presence of atropine in pancreas
[13] = Tissue/plasma ratio of the antagonistic compound in presence of atropine in submandibular gland
[14] = Tissue/plasma ratio of the antagonistic compound in lung
[15] = Tissue/plasma ratio of the antagonistic compound in intestine
[16] = Tissue/plasma ratio of the antagonistic compound in spleen

Structure (SMILES)	Ratio [1]	Ratio [2]	Ratio [3]	Ratio [4]	Ratio [5]	Ratio [6]	Ratio [7]	Ratio [8]	Ratio [9]	Ratio [10]	Ratio [11]	Ratio [12]	Ratio [13]	Ratio [14]	Ratio [15]	Ratio [16]
C[N+]1(C)CCC(OC(=O)[C@](O)(c2ccccc2)C2CCCCC2)CC1.[I-]	28.8	118	0.6	0.6	24.7	1.6	8	0.6	26.3	1.2	5.3	1.9	1.3	10.1	47.2	11
C[N+]1(C)CCC(OC(=O)C(O)(c2ccccc2)C2CCCCC2)CC1.[I-] (racemic)	14.2	61.1	1.8	1.1	11.6	2.1	4	1.3	12.1	3	8.7	2.3	1.6	4.8	33	6.3

Reference: ChEMBL document CHEMBL1130012 (J Med Chem, 1997)
